## Apparent affinities of Ab-14 variants for a coronavirus HR2 peptide

The target is the same throughout: PDVDLGDISGINAS, from the HR2 region of SARS-CoV-2 spike.

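AAYL49 was designed without a model: most single CDR substitutions and a random sample of double and triple ones. AlphaSeq pools MATa yeast showing the antibodies with MATalpha yeast showing the peptide. Pairs that bind mate more often; barcode pairs of the diploids are counted by sequencing. Read counts were normalised to the haploid input and turned into Kd by a linear fit to BCL2-family pairs of known affinity, for each replicate. Mating was done three times.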

Ab-14 is the parent antibody, in scFv form: VH, then a (GGGGS)3 linker, then VL. The light chain is unchanged in all variants.
VH: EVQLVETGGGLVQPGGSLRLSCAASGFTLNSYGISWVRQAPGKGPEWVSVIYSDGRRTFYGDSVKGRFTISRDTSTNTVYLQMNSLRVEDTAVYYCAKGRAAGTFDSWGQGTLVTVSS
VL: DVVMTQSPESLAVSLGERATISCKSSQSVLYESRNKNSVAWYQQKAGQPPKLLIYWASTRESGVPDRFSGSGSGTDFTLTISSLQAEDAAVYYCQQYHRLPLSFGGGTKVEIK

Variants are written as CDR1, CDR2 and CDR3 of the heavy chain (limits as in the source). Parent: GFTLNSYGIS, VIYSDGRRTFYGDSVK, GRAAGTFDS.
Scale: log10 of Kd in nM, estimated from mating counts; low values are strong binders.
"ND" means that the variant was in the library but no mating with the target was seen in that replicate; the authors take this as a sign of poor binding, and no number exists.
For reference, the parent read 0.65 as the reference entry and 4.11 (one replicate of three) as a member of this library.

{"CDR-H1": "GFTYNSNGIS", "CDR-H2": "VIYSDGRRTFYGDSVK", "CDR-H3": "GRAAGTCDS", "log10 Kd, replicates": "3.72 ND ND", "control signals": "1/9 (3.60)"}
{"CDR-H1": "GFNCNSYGIS", "CDR-H2": "VIYSDCRRTFYGDSVK", "CDR-H3": "GRAAGTFDS", "log10 Kd, replicates": "ND 3.69 ND", "control signals": "3/9 (4.36)"}
{"CDR-H1": "GFTLNSYGIS", "CDR-H2": "VIYSMGRRTFYGDSVK", "CDR-H3": "MRAAGTFDW", "log10 Kd, replicates": "ND ND ND", "control signals": "1/9 (4.10)"}
{"CDR-H1": "GFTLNSYGSS", "CDR-H2": "VIYRDGRRTFYGDSVK", "CDR-H3": "GRAAGTFDS", "log10 Kd, replicates": "ND ND ND", "control signals": "0/9"}
{"CDR-H1": "GFTLNLYGIS", "CDR-H2": "VIWSDGRRTFYGDSVK", "CDR-H3": "GRAAGRFDS", "log10 Kd, replicates": "ND ND ND", "control signals": "0/9"}
{"CDR-H1": "WFTLNSYGIS", "CDR-H2": "VAYSDGRRTFYGDSVK", "CDR-H3": "GRAAGSFDS", "log10 Kd, replicates": "ND ND ND", "control signals": "0/9"}
{"CDR-H1": "GFKLNSYGIS", "CDR-H2": "VIYSDGRRTCYGDSVK", "CDR-H3": "GRAAGTFDS", "log10 Kd, replicates": "3.09 3.04 3.80", "control signals": "3/9 (3.76)"}
{"CDR-H1": "GFTLASYGIS", "CDR-H2": "VIYSDGRRTQYGDSEK", "CDR-H3": "GRAAGTFDS", "log10 Kd, replicates": "4.14 4.23 ND", "control signals": "4/9 (4.47)"}
{"CDR-H1": "GFTLNRYGIS", "CDR-H2": "VIYSDGYRTFYGDSVK", "CDR-H3": "GRAAGTFDS", "log10 Kd, replicates": "ND ND ND", "control signals": "0/9"}
{"CDR-H1": "GFQLNSYGIS", "CDR-H2": "VIYSDGRRTFYGDSVY", "CDR-H3": "GRAAMTFDS", "log10 Kd, replicates": "4.08 2.31 3.57", "control signals": "0/9"}
{"CDR-H1": "GFTLNSYGIV", "CDR-H2": "VIYSDGRRIFYGDSVK", "CDR-H3": "GRAAGTFDS", "log10 Kd, replicates": "ND ND ND", "control signals": "2/9 (4.41)"}
{"CDR-H1": "GFTLNKYGIH", "CDR-H2": "VIYSDGRRTFYGDVVK", "CDR-H3": "GRAAGTFDS", "log10 Kd, replicates": "0.80 1.17 2.18", "control signals": "0/9"}
{"CDR-H1": "GFTLTSYGIS", "CDR-H2": "VIYSDGRRTFYGDAVK", "CDR-H3": "GRAAGTFDS", "log10 Kd, replicates": "1.01 1.07 1.00", "control signals": "3/9 (4.45)"}
{"CDR-H1": "GFTHNSYGIS", "CDR-H2": "VIYQDGRRTFYADSVK", "CDR-H3": "GRAAGTFDS", "log10 Kd, replicates": "ND 3.33 ND", "control signals": "2/9 (3.60)"}
{"CDR-H1": "GFPLFSYGIS", "CDR-H2": "VLYSDGRRTFYGDSVK", "CDR-H3": "GRAAGTFDS", "log10 Kd, replicates": "ND ND ND", "control signals": "0/9"}
{"CDR-H1": "GFTLNSYGGS", "CDR-H2": "VCYSDGQRTFYGDSVK", "CDR-H3": "GRAAGTFDS", "log10 Kd, replicates": "ND 4.93 ND", "control signals": "2/9 (4.18)"}
{"CDR-H1": "GFTLNSYGRS", "CDR-H2": "VIYSDGRRTFYGDSVK", "CDR-H3": "VRAAWTFDS", "log10 Kd, replicates": "ND ND ND", "control signals": "0/9"}
{"CDR-H1": "GFTLNSYGIS", "CDR-H2": "VIYSQGRRAFYGDSVK", "CDR-H3": "GYAAGTFDS", "log10 Kd, replicates": "ND ND ND", "control signals": "2/9 (3.79)"}
{"CDR-H1": "GFTLNSYGIS", "CDR-H2": "VIYSTGRRTFYGDSVK", "CDR-H3": "ARADGTFDS", "log10 Kd, replicates": "ND ND ND", "control signals": "0/9"}
{"CDR-H1": "GFTLNSYGIL", "CDR-H2": "VIYSDGRRTFYGDSVK", "CDR-H3": "GRASTTFDS", "log10 Kd, replicates": "5.38 ND ND", "control signals": "3/9 (3.42)"}
{"CDR-H1": "GFTLNSYGIS", "CDR-H2": "VIYSDGRRTFYSDSTK", "CDR-H3": "GRAADTFDS", "log10 Kd, replicates": "0.16 0.49 0.71", "control signals": "1/9 (2.86)"}
{"CDR-H1": "GFTMNSYGIS", "CDR-H2": "VIYSDGRRTFYGDSIK", "CDR-H3": "GRNAGTFDS", "log10 Kd, replicates": "2.54 2.42 2.19", "control signals": "0/9"}
{"CDR-H1": "GFTLNSYGIS", "CDR-H2": "VIYSKGRRTFYGASVK", "CDR-H3": "GRAAGTFDP", "log10 Kd, replicates": "ND ND ND", "control signals": "2/9 (4.81)"}

Extract of 2 entries:

{"CDR-H1": "WFTLNSYGIS", "CDR-H2": "VAYSDGRRTFYGDSVK", "CDR-H3": "GRAAGSFDS", "log10 Kd, replicates": "ND ND ND", "control signals": "0/9"}
{"CDR-H1": "GFQLNSYGIS", "CDR-H2": "VIYSDGRRTFYGDSVY", "CDR-H3": "GRAAMTFDS", "log10 Kd, replicates": "4.08 2.31 3.57", "control signals": "0/9"}

Empty control strains, which show no peptide, gave a signal in 15% of pairings with library AAYL49; the median was 4.06 and 95% of these signals were weaker than 2.83. No background was subtracted. The control count says in how many pairings with the empty strains this scFv gave a signal, with their mean in brackets.

The measurements come from Engelhart et al. 2022 (doi:10.1038/s41597-022-01779-4) through the FLAb antibody collection.